An excerpt weighted towards active compounds, which were near 2.2% of everything screened.
GALK inhibitor: galactokinase (human) inhibition | P51570 | Purified GALK, Kinase-Glo residual ATP luminescence | Potency, µM (top dose mostly 57.5 µM), usual class: inhibitors | 270,000 tested, 0.007% active | AID 1868
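GALK at 5 nM final was combined with compound, 35 uM ATP and 100 uM galactose in HEPES pH8.0 with MgCl2 and DTT. The reaction ran one hour at room temperature before luminescent ATP detection.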
A549 tox: kills or reduces viability of A549 cells in Nrf2 counter-screen | A549 ARE-Fluc cells, CellTiter-Fluor viability, 18-24 h | Potency, µM (series often up to 46 µM), actives largely listed as inhibitors | 390,000 tested, 0.16% active
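A549 ARE_Fluc cells in 5% FBS OPTI-MEM were exposed to compounds in concentration-response for 18-24 h at 37 deg C. Viability was read by CellTiter-Fluor fluorescence (Ex 405/Em 525) after 30 min, before the luciferase read.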
Nrf2 inh: inhibitors of Nrf2 signaling; A549 ARE-Fluc reporter, luciferase luminescence, 18-24 h; 360,000 tested, 2.1% active; Potency, µM (top dose mostly 46 µM), usual class: inhibitors; further: nearly all actives have a fitted effect of over 60% in size
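Nrf2 function is reported as luminescence of an ARE-controlled luciferase in A549 cells. Compounds were tested at several concentrations, and a CellTiter-Fluor read on the same wells flagged cytotoxicity.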
PI4K2A inh: PI4K2A (human) kinase inhibition | 420,000 tested, 0.13% active | activity change, negative = inhibition, % at 76.9 µM | purified PI4K2A, ADP-Glo luminescence, 1 h; stronger effect = lower value; in the data active means activity change below about -50%; inconclusive means mostly about -30% to -49%
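In this quantitative HTS, ADP production by PI4K2A was quantified luminescently after 1 h at ambient temperature; 100 microM adenosine served as plate-quality control.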
miR-21 FLuc: miR-21 reporter, rising signal | 340,000 tested, under 10 active | AID 2288 | HeLa miR-21 FLuc reporter, luciferase, 48 h | Potency, µM (titrated, usually from 38.3 µM); active = well fitted rising curve with a large enough effect; inconclusive = small, poorly fitted or top-dose-only effect; inactive = no such curve, though single readings can be large or run the other way;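 further: miR-21 action dims this reporter so a rising signal means less miR-21 action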
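HeLa cells stably expressing CMV-driven firefly luciferase with a downstream miR-21 binding sequence, endogenously expressing miR-21, were treated with titrations (up to about 40uM final) for 48 hours at 37 degree Celsius. Luciferase luminescence was read after lysis.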
Nrf2 activator: activators of Nrf2 (ARE) signaling | AREc32 ARE-luciferase reporter (MCF7-derived line), luminescence, 24 h | Potency, µM (doses to about 46.1 µM), usual class: activators | 410,000 tested, 0.31% active | AID 624171; further: nearly all actives have a fitted effect of over 65% in size
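Nrf2 activation is followed as ARE-luciferase induction in the AREc32 line after one day of compound treatment; luminescence is read with Steady-Glo.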
A number is an active result; – = inactive; ? = inconclusive; · = no result given. Unless noted, the call rests on the fitted dose curve; in most records, active means well fitted curve in the direction sought with a large enough effect; inconclusive means small, poorly fitted or top-dose-only effect, or another doubt; inactive means no such curve, though single readings can be large; an effect the other way counts as inactive or inconclusive.

SMILES	GALK inhibitor	A549 tox	Nrf2 inh	PI4K2A inh	miR-21 FLuc	Nrf2 activator
O=C(NCc1ccccc1)C1CCN(c2nc(-c3ccc(Br)cc3)cs2)CC1	·	·	·	–	·	·
O=C(COC(=O)c1nc(Cl)c(Cl)c(Cl)c1Cl)c1ccc[nH]1	·	–	–	–	·	22.4µM
O=C(Nc1ccccc1)N1N=C(c2cccs2)CC1c1cccs1 (stereo unspecified)	–	–	23.1µM	–	–	–
O=C(/C=C/c1ccco1)OCc1nnc(-c2ccc(Cl)cc2)o1	–	–	?	–	–	14.1µM
O=C(/C=C/c1ccco1)OCc1nnc(-c2ccccc2)o1	–	–	–	–	–	11.2µM
CN(CC#Cc1ccccc1)C(N)=NC(=O)/C=C/c1cccc(C(F)(F)F)c1	·	·	·	–	·	·
CCCc1ccc(OCC(=O)N2CCN(C(=O)COc3ccc(CCC)cc3OC)CC2)c(OC)c1	·	·	·	–	·	·
O=c1c2ccccc2sc2ccc(C#CC3(O)CCCCC3)cc12	·	–	20.6µM	–	·	–
COc1cccc2sc3ccc(C#CC4(O)CCCCC4)cc3c(=O)c12	·	–	?	–	–	–
COc1ccc(-c2cc(C(F)(F)F)c3c(n2)sc2c(O)cc(=O)[nH]c23)c(OC)c1	–	–	–	-56.0	–	–
Cc1cc(C)c2c(n1)sc1c(O)cc(=O)[nH]c12	–	–	?	–	–	–
CC1=NN(c2ccc(Br)cc2)C(=O)/C1=C/c1ccc(-c2ccccc2C(=O)O)o1	–	–	–	-50.2	–	–
COc1cc(-c2nc(C(=O)NC3CCCCC3)cc3c2[nH]c2ccccc23)cc(OC)c1OC	·	–	9.2µM	–	–	–
Cc1ccc(-c2nc(C(=O)NCC3CCCO3)cc3c2[nH]c2ccccc23)cc1 (stereo unspecified)	·	–	?	–	–	–
Cc1ccccc1-c1nc(C(=O)NCC2CCCO2)cc2c1[nH]c1ccccc12 (stereo unspecified)	·	–	23.1µM	–	–	–
CCn1c(SCC(=O)Nc2ccc(C(C)C)cc2)nnc1-c1ccc(C(C)(C)C)cc1	·	·	·	–	·	·
Cc1cc(C)c(Cn2cnc(-c3ccc([N+](=O)[O-])cc3)c2)c(C)c1	–	?	20.6µM	–	–	–
CCN1CCCC1CN (stereo unspecified)	·	·	·	–	·	·
CCCOc1cccc(-c2cc(C(=O)N/N=C/c3ccccn3)c3ccccc3n2)c1	–	–	?	–	–	–
O=C(N/N=C/c1ccccn1)c1cc(-c2ccc(Cl)cc2)nc2ccccc12	·	?	9.2µM	–	–	–
O=C(N/N=C/c1ccccn1)c1cc(-c2ccc(Br)cc2)nc2ccccc12	–	?	13µM	–	–	–
CNc1nc(-c2ccccn2)nnc1-c1ccccc1	–	?	11.2µM	?	–	–
CC(C)(C)c1ccc(CNc2nc(-c3ccccn3)nnc2-c2ccccc2)cc1	·	·	·	–	·	·
O=C(c1ccncc1)N1CCCC(N2CCN(c3cccc(C(F)(F)F)c3)CC2)C1 (stereo unspecified)	–	–	?	–	–	–
CCc1cc(C(=O)N2CCCC(N3CCN(c4cccc(C(F)(F)F)c4)CC3)C2)n(C)n1 (stereo unspecified)	–	–	8.2µM	–	–	–
SMILES	GALK inhibitor	A549 tox	Nrf2 inh	PI4K2A inh	miR-21 FLuc	Nrf2 activator
Cc1ccc(S(N)(=O)=O)cc1NC(=O)/C=C/c1cccs1	–	–	·	–	–	12.6µM
O=C(NCc1ccc(F)cc1)c1cc(S(=O)(=O)N2CCCCC2)ccc1Cl	·	–	–	–	·	–
O=C(OCc1cccc(Cl)c1)c1cc(S(=O)(=O)N2CCCCC2)ccc1N1CCOCC1	–	–	?	–	–	–
CCOc1ccc(CNC(=O)C2CCCN(S(=O)(=O)N(C)c3ccc(F)cc3)C2)cc1OC (stereo unspecified)	·	–	?	–	?	–
COc1ccc(CNC(=O)C2CCCN(S(=O)(=O)N(C)c3ccc(F)cc3)C2)cc1OC (stereo unspecified)	·	–	23.1µM	–	?	–
O=C(OCCOc1cccc(Cl)c1)c1cc(S(=O)(=O)N2CCCCC2)ccc1N1CCOCC1	·	–	11.6µM	–	·	–
COc1ccc(CNC(=O)c2cc(S(=O)(=O)N3CCCCC3)ccc2Cl)cc1OC	·	–	16.4µM	–	·	–
Cc1ccc(CNC(=O)c2cc(S(=O)(=O)N3CCCCC3)ccc2N2CCOCC2)cc1	·	?	20.6µM	–	·	–
Cc1ccc(NC(=O)c2cc(S(=O)(=O)N3CCCCC3)ccc2N2CCOCC2)cc1	·	·	·	–	·	–
O=C(NCCc1nc2ccccc2n1CCOc1ccc2cccnc2c1)C1CCCCC1	·	·	·	–	·	·
COc1ccc(CN(Cc2ccccc2)C(=O)C2CC2)cc1COc1ccc(NC(C)=O)cc1	·	–	20.6µM	·	·	·
Cc1ccnc(NC(=S)N2CC3CN(c4cccc(C(F)(F)F)c4)CC3C2)c1 (stereo unspecified)	·	·	·	–	·	·
O=C(Nc1cccc(Cl)c1)C(Cc1ccccc1)n1cccc1 (stereo unspecified)	·	–	?	–	–	–
CCc1cccc(NC(=O)C(Cc2ccccc2)n2cccc2)c1 (stereo unspecified)	·	–	20.6µM	–	–	–
COc1nc(N/N=C/c2cc3c(cc2Br)OCO3)nc(N2CCOCC2)n1	–	–	16.4µM	–	–	–
Cc1ccc(C)c(N2CCN(C(=O)C3CCCN(S(=O)(=O)c4c(C)noc4C)C3)CC2)c1 (stereo unspecified)	–	–	16.4µM	–	–	–
Cc1noc(C)c1S(=O)(=O)N1CCC(C(=O)N2CCN(c3cccc(C(F)(F)F)c3)CC2)CC1	·	–	18.4µM	–	–	–
CCOc1ccc2nc(NC(=O)C3CCCN(S(=O)(=O)c4c(C)noc4C)C3)sc2c1 (stereo unspecified)	–	–	20.6µM	–	–	–
COc1ccc2nc(NC(=O)C3CCCN(S(=O)(=O)c4c(C)noc4C)C3)sc2c1 (stereo unspecified)	–	–	–	–	–	–
N#CCc1ccc(OC[C@@H](O)CN2CCC(C(O)(c3ccccc3)c3ccccc3)CC2)cc1	·	·	·	–	·	·
O=S1(=O)c2c(NCc3ccco3)cccc2Oc2ccccc2CN1Cc1cn(Cc2cccc(F)c2)nn1	·	·	·	–	·	·
Cc1ccc[n+](CC(=O)c2ccc(Br)cc2)c1	–	–	23.1µM	–	–	–
Clc1ccc(C=Cc2ccccn2)cc1	·	–	?	–	·	8.91µM
Cc1ccc(C=Cc2ccccn2)cc1	·	·	·	–	·	?
O=C(CSc1n[nH]c(=O)n1C1CC1)Nc1cc(Cl)ccc1Oc1ccccc1	–	?	18.4µM	–	?	–
CCN(CC)c1nc(SCCOC(=O)Nc2ccccc2)nc(N(CC)CC)n1	–	?	20.6µM	–	–	–
Cc1[nH]nc2c1-c1nc3ccccc3nc1C(C)(C)C2	–	14.6µM	14.6µM	–	–	–
